Assay results: article PMC3602246 (BMC Pharmacology & Toxicology, 2013)
Read-outs that look alike come from different tables or passages of the source.

Columns and labels:
[1] = biological target: T1, human delta opioid receptor (Homo sapiens, UniProt P41143)
SH-SY5Y cells [2] = system: SH-SY5Y cells
SH-SY5Y cells [3] = experiment: iPOT DMR profiling of SH-SY5Y cells pretreated with probe molecules
SH-SY5Y cells [4] = system: SH-SY5Y cells; remark: listed apart in the source
[5] = biological target: T1, human delta opioid receptor; type: cell-based; set-up: FLAG; expressed in transfected cells

## O=C1/C(=C/c2ccccc2)C[C@@]2(O)[C@H]3Cc4ccc(O)c5c4[C@@]2(CCN3CC2CC2)[C@H]1O5 [BNTX]
[1]
  DMR agonist activity classification, DOR: off-target
SH-SY5Y cells [2]
  DMR agonist activity classification, SH-SY5Y: off-target
  DMR signal / agonist activity in native SH-SY5Y cells, in words: biphasic DMR response

## C[C@@H](NC(=O)[C@@H](N)Cc1ccc(O)cc1)C(=O)NCC(=O)N(C)[C@@H](Cc1ccccc1)C(=O)NCCO [DAMGO]
[1]
  maximal DMR amplitude: 235±13 pm
SH-SY5Y cells [2]
  DMR agonist activity classification, SH-SY5Y: Full agonist
  DMR response at 9 min poststimulation: 87±9 pm
  DMR signal / agonist activity in native SH-SY5Y cells, in words: positive DMR signal
  maximal DMR response: 102±8 pm

## CN(C(=O)Cc1ccc(Cl)c(Cl)c1)[C@H](CN1CCCC1)c1cccc(N=C=S)c1 [DIPPA]
SH-SY5Y cells [3]
  effect of CTX pretreatment on ligand DMR: potentiated
  effect of SB202190 pretreatment on ligand DMR: delayed the time to reach its peak
  effect of U0126 pretreatment on ligand DMR: converted the DMR response to a single phase N-DMR
  effect of forskolin pretreatment on ligand DMR: potentiated
  ligand DMR in PTX-pretreated cells: suppressed both the early and late DMR response

## CC1(C)SSC(C)(C)[C@@H](NC(=O)[C@@H](N)Cc2ccc(O)cc2)C(=O)NCC(=O)N[C@@H](Cc2ccccc2)C(=O)N[C@H]1C(=O)O [DPDPE]
SH-SY5Y cells [4]
  potency to desensitize DAMGO-induced DMR versus that expected at DOR binding sites: lower potency
SH-SY5Y cells [3]
  effect of CTX pretreatment on ligand DMR: suppressed
  effect of forskolin pretreatment on ligand DMR: suppressed
  effect of the kinase inhibitors on ligand DMR: mostly suppressed

## NC(=O)[C@H](Cc1ccccc1)NC(=O)[C@H](Cc1c[nH]c2ccccc12)NC(=O)[C@@H]1CCCN1C(=O)[C@@H](N)Cc1ccc(O)cc1 [Endomorphin-1]
SH-SY5Y cells [2]
  maximal DMR response: 102±6 pm

## NC(=O)[C@H](Cc1ccccc1)NC(=O)[C@H](Cc1ccccc1)NC(=O)[C@@H]1CCCN1C(=O)[C@@H](N)Cc1ccc(O)cc1 [Endomorphin-2]
SH-SY5Y cells [2]
  DMR agonist activity classification, SH-SY5Y: Full agonist
  maximal DMR response: 102±7 pm

## CN(C(=O)Cc1ccc(Cl)c(Cl)c1)[C@H](CN1CCCC1)c1ccccc1 [ICI 199,441]
SH-SY5Y cells [2]
  DMR signal / agonist activity in native SH-SY5Y cells, in words: biphasic DMR response

## CN(C(=O)Cc1ccc(Cl)c(Cl)c1)C(CN1CCCC1)c1cccc(OCC(=O)O)c1 (centres unmarked) [ICI 204,448]
SH-SY5Y cells [2]
  DMR agonist activity classification, SH-SY5Y: Full agonist

## C=CCN1CC[C@]23CCCC[C@H]2[C@H]1Cc1ccc(O)cc13 [Levallorphan]
SH-SY5Y cells [4]
  potency to block/desensitize DAMGO-induced DMR versus that expected from reported MOR affinity: less potent

## Oc1ccc2c3c1O[C@H]1c4c(c5ccccc5n4Cc4ccccc4)C[C@@]4(O)[C@@H](C2)N(CC2CC2)CC[C@]314 [N-Benzylnaltrindole]
[5]
  effect of LY294002 pretreatment on ligand DMR: insensitive
  effect of SB202190 pretreatment on ligand DMR: suppressed
  effect of SP600125 pretreatment on ligand DMR: insensitive
  effect of U0126 pretreatment on ligand DMR: insensitive

## Oc1ccc2c3c1O[C@H]1c4oc5ccccc5c4C[C@@]4(O)[C@@H](C2)N(CC2CC2)CC[C@]314 [Naltriben]
[1]
  DMR agonist activity in HEK-DOR cells, in words: silent

## Oc1ccc2c3c1O[C@H]1c4[nH]c5ccccc5c4C[C@@]4(O)[C@@H](C2)N(CC2CC2)CC[C@]314 [Naltrindole]
[1]
  maximal DMR amplitude: 82±9 pm

## C=CCN1CCC2(C)c3cc(O)ccc3CC1C2C (centres unmarked) [SKF10047]
SH-SY5Y cells [4]
  potency to block/desensitize DAMGO-induced DMR versus that expected from reported MOR affinity: greater potency

## C=CCN1C[C@H](C)N([C@H](c2ccc(C(=O)N(CC)CC)cc2)c2cccc(OC)c2)C[C@H]1C [SNC 80]
SH-SY5Y cells [4]
  potency to desensitize DAMGO-induced DMR versus that expected at DOR binding sites: lower potency

## CCCN1C[C@H](C)N([C@H](c2ccc(C(=O)N(CC)CC)cc2)c2cccc(OC)c2)C[C@H]1C [SNC 121]
SH-SY5Y cells [4]
  potency to desensitize DAMGO-induced DMR versus that expected at DOR binding sites: lower potency

## COc1cccc(C2(O)CCCCC2CN(C)C)c1 (centres unmarked) [Tramadol]
SH-SY5Y cells [2]
  DMR signal / agonist activity in native SH-SY5Y cells, in words: inactive

## COC(=O)/C=C/C(=O)N[C@@H]1CC[C@@]2(O)[C@H]3Cc4ccc(O)c5c4[C@@]2(CCN3CC2CC2)[C@H]1O5 [β-Funaltrexamine]
SH-SY5Y cells [4]
  potency to block/desensitize DAMGO-induced DMR versus that expected from reported MOR affinity: less potent

## (Met5)-Enkephalin
SH-SY5Y cells [2]
  DMR agonist activity classification, SH-SY5Y: Full agonist

## DADLE
SH-SY5Y cells [2]
  DMR agonist activity classification, SH-SY5Y: Full agonist

## DSLET
SH-SY5Y cells [2]
  DMR agonist activity classification, SH-SY5Y: Full agonist

## DTLET
[1]
  DMR agonist activity classification, DOR: Full agonist
SH-SY5Y cells [2]
  DMR agonist activity classification, SH-SY5Y: Full agonist

## Deltorphin II
SH-SY5Y cells [4]
  potency to desensitize DAMGO-induced DMR versus that expected at DOR binding sites: lower potency

## Dynorphin A (1–8) (YGGFLRRI; Dynorphin A(1-8); UniProt P01213 207-214, looked up, fragment)
SH-SY5Y cells [2]
  DMR agonist activity classification, SH-SY5Y: Full agonist
SH-SY5Y cells [3]; SH-SY5Y, 400 ng/ml CTX, 20 hr, ligand 10 μM
  effect of CTX pretreatment on ligand DMR: suppressed

## Dynorphin A (2–13)
HEK293 cells
  DMR agonist activity classification, HEK: off-target
  DMR in parental HEK293 cells, in words: noticeable DMR

## Dynorphin B
SH-SY5Y cells [2]
  DMR agonist activity classification, SH-SY5Y: Full agonist

## α-Neoendorphin (YGGFLRKYPK; Alpha-neoendorphin; UniProt P01213 175-184, looked up)
[1]
  DMR agonist activity classification, DOR: Full agonist
SH-SY5Y cells [2]
  DMR agonist activity classification, SH-SY5Y: Full agonist
